Experimental data reported in patent US20240408183A1, “KYNURENINE AMINOTRANSFERASE AND PRODUCTS THEREOF FOR THE TREATMENT OF INFLAMMATORY BOWEL DISEASES” (Institut National De Recherche Pour L'Agriculture, …, priority 2021, published 2024).

Tested on: mice submitted to DSS-induced colitis
Assay: DSS-induced colitis model in mice
Type: in vivo, mouse (C57BL/6JRj)
Conditions: oral, each day, 8 mg of KYNA / 6 mg of XANA per mouse; measured daily; DSS 2%
Procedure: C57BL/6JRj from Janvier lab, 7 weeks old, were housed in our specific pathogen free animal facility at IERP (INRA, Jouy en Josas, France). Five to ten female mice per group were used in all experiment, were maintained in a temperature controlled (23° C.) facility with a strict 12 h light/dark cycles and were given free access to food and water. After one acclimation week, we changed water with DSS 2% (MP Biomedical) during 7 days (day 0 to day 7), and a
recovery period was practiced until day 12 (during 5 days). Body weight loss and DAI (disease activity index) were performed daily. After 12 days the samples were harvested.
Colon distal part (cut in three parts) was harvested at day 12 after DSS model and put directly in PFA (Rothi®—Histofix 4%) during 48 h and transferred in ethanol 70% until the standard pre-fixation automat and paraffin embedded. HES coloration was practiced on 5Im cut.
Data were analyzed using Prism version 7 (Graphpad Software, San Diego, USA). The non-parametric Mann Withney test or the parametric one-way ANOVA tests with multiple Bonferroni's comparison tests were performed. Values are expressed as mean±SEM. Statistical significance was defined at a p-value ****<0.0001, ***<0.001, **<0.01, *<0.05.

For `O=C(O)c1cc(O)c2cccc(O)c2n1` [XANA, xanthurenic acid], the “activity index of colitis (DAI)” value was “anti-inflammatory effect”.
